By UniProt entry, the sequences of proteins in these tests, tags left out.
UniProt P27487, whole entry, species assumed: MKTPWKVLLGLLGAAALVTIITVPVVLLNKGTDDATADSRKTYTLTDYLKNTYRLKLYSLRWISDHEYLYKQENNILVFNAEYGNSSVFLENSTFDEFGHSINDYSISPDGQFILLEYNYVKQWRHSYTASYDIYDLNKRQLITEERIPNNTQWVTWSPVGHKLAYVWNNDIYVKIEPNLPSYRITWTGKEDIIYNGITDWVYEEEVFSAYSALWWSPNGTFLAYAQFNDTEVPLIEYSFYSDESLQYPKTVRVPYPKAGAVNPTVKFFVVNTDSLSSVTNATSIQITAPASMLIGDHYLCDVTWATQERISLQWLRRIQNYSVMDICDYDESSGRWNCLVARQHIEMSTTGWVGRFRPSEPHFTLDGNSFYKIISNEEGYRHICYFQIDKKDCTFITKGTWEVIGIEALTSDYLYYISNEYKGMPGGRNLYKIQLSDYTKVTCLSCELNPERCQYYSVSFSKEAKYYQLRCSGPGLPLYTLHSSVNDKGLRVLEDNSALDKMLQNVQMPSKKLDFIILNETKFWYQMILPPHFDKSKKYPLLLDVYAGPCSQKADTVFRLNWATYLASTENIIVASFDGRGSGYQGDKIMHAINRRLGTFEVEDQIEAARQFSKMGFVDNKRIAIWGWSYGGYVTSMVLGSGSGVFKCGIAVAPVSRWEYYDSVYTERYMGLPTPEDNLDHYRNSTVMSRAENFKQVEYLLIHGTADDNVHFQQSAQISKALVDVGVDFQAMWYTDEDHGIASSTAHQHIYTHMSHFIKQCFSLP

In this data set the target is DPP-IV (Homo sapiens, UniProt P27487). In words: in vitro. The note with it: isolated enzyme dpp iv, pH 7.4.
Regarding `CC[C@H](C)[C@H](NC(=O)[C@H](Cc1ccccc1)NC(=O)[C@H](CCC(=O)O)NC(=O)[C@H](CCCCN)NC(=O)[C@H](C)NC(=O)[C@H](C)NC(=O)[C@H](CCC(N)=O)NC(=O)[C@H](CCC(=O)O)NC(=O)[C@H](CCC(=O)O)NC(=O)[C@H](CC(C)C)NC(=O)[C@H](Cc1ccc(O)cc1)NC(=O)[C@H](CO)NC(=O)[C@H](CO)NC(=O)[C@@H](NC(=O)[C@H](CC(=O)O)NC(=O)[C@H](CO)NC(=O)[C@@H](NC(=O)[C@H](Cc1ccccc1)NC(=O)[C@@H](NC(=O)CNC(=O)[C@@H](/C=C(\F)[C@H](C)NC(=O)[C@@H](N)Cc1c[nH]cn1)CCC(=O)O)[C@@H](C)O)[C@@H](C)O)C(C)C)C(=O)N[C@@H](C)C(=O)N[C@@H](Cc1c[nH]c2ccccc12)C(=O)N[C@@H](CC(C)C)C(=O)N[C@H](C(=O)N[C@@H](CCCCN)C(=O)NCC(=O)N[C@@H](CCCNC(=N)N)C(=O)NCC(N)=O)C(C)C` [[Q-linker-b8-9, Glu22]GLP-1-(7-37)-peptide], the amount remaining – broadly, the share of the starting amount still present when the sample was taken – at 1 h, 0.5 nmol/L was 98% and the share remaining at 24 h, 0.5 nmol/L was found to be 92%.

Regarding `CC[C@H](C)[C@H](NC(=O)[C@H](Cc1ccccc1)NC(=O)[C@H](CCC(=O)O)NC(=O)[C@H](CCCCN)NC(=O)[C@H](C)NC(=O)[C@H](C)NC(=O)[C@H](CCC(N)=O)NC(=O)[C@H](CCC(=O)O)NC(=O)[C@H](CCC(=O)O)NC(=O)[C@H](CC(C)C)NC(=O)[C@H](Cc1ccc(O)cc1)NC(=O)[C@H](CO)NC(=O)[C@H](CO)NC(=O)[C@@H](NC(=O)[C@H](CC(=O)O)NC(=O)[C@H](CO)NC(=O)[C@@H](NC(=O)[C@H](Cc1ccccc1)NC(=O)[C@@H](NC(=O)CNC(=O)[C@H](CCC(=O)O)N[C@@H](CNC(=O)[C@@H](N)Cc1c[nH]cn1)C(F)(F)F)[C@@H](C)O)[C@@H](C)O)C(C)C)C(=O)N[C@@H](C)C(=O)N[C@@H](Cc1c[nH]c2ccccc12)C(=O)N[C@@H](CC(C)C)C(=O)N[C@H](C(=O)N[C@@H](CCCCN)C(=O)NCC(=O)N[C@@H](CCCNC(=N)N)C(=O)NCC(N)=O)C(C)C` [[Q-linker-c8, Glu22]GLP-1-(7-37)-peptide], the fraction remaining at 1 h, 0.5 nmol/L is 98% and the fraction remaining at 24 h, 0.5 nmol/L came out at 90%.

`CC[C@H](C)[C@H](NC(=O)[C@H](Cc1ccccc1)NC(=O)[C@H](CCC(=O)O)NC(=O)[C@H](CCCCN)NC(=O)[C@H](C)NC(=O)[C@H](C)NC(=O)[C@H](CCC(N)=O)NC(=O)[C@H](CCC(=O)O)NC(=O)[C@H](CCC(=O)O)NC(=O)[C@H](CC(C)C)NC(=O)[C@H](Cc1ccc(O)cc1)NC(=O)[C@H](CO)NC(=O)[C@H](CO)NC(=O)[C@@H](NC(=O)[C@H](CC(=O)O)NC(=O)[C@H](CO)NC(=O)[C@@H](NC(=O)[C@H](Cc1ccccc1)NC(=O)[C@@H](NC(=O)CNC(=O)[C@H](CCC(=O)O)CC(=O)[C@H](C)NC(=O)[C@@H](N)Cc1c[nH]cn1)[C@@H](C)O)[C@@H](C)O)C(C)C)C(=O)N[C@@H](C)C(=O)N[C@@H](Cc1c[nH]c2ccccc12)C(=O)N[C@@H](CC(C)C)C(=O)N[C@H](C(=O)N[C@@H](CCCCN)C(=O)NCC(=O)N[C@@H](CCCNC(=N)N)C(=O)NCC(N)=O)C(C)C` [[Q-linker-e8-9, Glu22]GLP-1-(7-37)-peptide] returned a share remaining at 1 h, 0.5 nmol/L of 98% and an amount remaining at 24 h, 0.5 nmol/L of 91%.

(Values after patent publication US9487570B2, “Glucagon like peptide analogs, composition, and method of use” (BETTA PHARMACEUTICALS CO., LTD, priority 2010, dated 2016).)
